Data: PubChem BioAssay AID748 (Sanford-Burnham Center for Chemical Genomics, 2007)
Only a part is listed here, and it is no random draw. Entries with a potency or affinity are not part of this list. Activity calls are given as the source filed them.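 The calls were made as follows: active = displacement above 50% at 20 µM plus a fluorescence interference ratio under 1.5; inactive = the rest.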

Biological target: Bcl-2-like protein 10 (Homo sapiens) (UniProt Q9HD36)
Assay: displacers of TR3 peptide from Bcl-B, primary screen, selectivity assay for Bfl-1 inhibitor project, biochemical, fluorescence polarization, FITC-TR3 peptide (AID 748);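 also: plate controls were wells without compound for no effect and wells lacking Bcl-B protein for full effect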
Conditions: FP displacement of FITC-TR3 peptide from Bcl-B; at 20 µM; hits give high values

| SMILES | displacement |
| --- | --- |
| CC(C)CC(=O)NC(Sc1ccc(Cl)cc1)C(Cl)(Cl)Cl (stereo not given) | inactive: -12% |
| Oc1ccccc1CNc1ccccn1 | inactive: -3.9% |
| Cc1c2non([O-])c-2c(C)[n+](=O)[n+]1[O-] | inactive: -12.5% |
| CCOP(=O)(Nc1ccccc1)OCC | inactive: 4.2% |
| CC1CCN(C(=O)Oc2c(Cl)cc(Cl)c3cccnc23)CC1 | inactive: -9.5% |
| O=[N+]([O-])c1cccc2n[nH]nc12 | inactive: 6.6% |
| CC(=O)N1C2C3N(C(C)=O)C1C1N(C(C)=O)C(C(N1C(C)=O)N3C(C)=O)N2C(C)=O | inactive: 0.1% |
| CCc1nc2c(n1)c1c(non1O)c1c2no[n+]1[O-] | inactive: -0.9% |
| c1nnnn1CCn1cnnn1 | inactive: 0.4% |
| O=P(Nc1nccs1)(c1ccccc1)c1ccccc1 | inactive: -0.5% |
| O=C(OC1CN2CCC1CC2)c1cccc(Cl)c1 (stereo not given) | inactive: -2.6% |
| COC(=O)c1cc2c(s1)N=C(c1ccccc1)N(C)P2(=O)N1CCOCC1 (stereo not given) | inactive: 0% |
| CCC(=O)N1C2C3N(C(=O)CC)C1C1N(C(=O)CC)C(C(N1C(=O)CC)N3C(=O)CC)N2C(=O)CC | inactive: 3.5% |
| CCOC(=O)NC(Sc1ccccc1)C(Cl)(Cl)Cl (stereo not given) | inactive: -6.8% |
| O=P1(Nc2nc3ccc(Cl)cc3s2)COc2ccccc2O1 (stereo not given) | inactive: 12.7% |
| Cc1cccc(OCC(=O)OC2CN3CCC2CC3)c1 (stereo not given) | inactive: -3.8% |
| O=[N+]([O-])c1ccc2c(c1)nnn2O | inactive: -1.2% |
| CCOP1(=S)c2c(C)nn(CCC#N)c2N=C(c2ccc(F)cc2)N1C (stereo not given) | inactive: -1.6% |
| CCOP1(=S)c2c(C)nn(CCC#N)c2N=C(c2ccccc2F)N1C (stereo not given) | inactive: -3.7% |
| O=P(Nc1nccs1)(c1ccccc1)c1nc2ccccc2s1 (stereo not given) | inactive: 0% |
| Cc1ccc(OCC(=O)OC2CN3CCC2CC3)cc1 (stereo not given) | inactive: -3.6% |
| O=P1(Nc2ccc(Br)cn2)COc2ccccc2OC1 | inactive: 0.3% |
| O=P1(Nc2ncccn2)COc2ccccc2OC1 | inactive: -2.5% |
| Cc1nn(-c2ccccc2)c2c1P(=O)(N1CCOCC1)N(C)C(c1ccccc1)=N2 (stereo not given) | inactive: -12% |
| Clc1n[nH]nc1-c1nn[nH][15n]1 | inactive: 9.8% |
| O=P1(Nc2ccccn2)COc2ccccc2OC1 | inactive: -2.4% |
| O=C(COc1ccccc1)OC1CN2CCC1CC2 (stereo not given) | inactive: -2.2% |
| COP1(=S)c2c(C)nn(CCC#N)c2N=C(c2ccc(F)cc2)N1C (stereo not given) | inactive: -7.4% |
| CCN(CC)C(=S)SC(NC=O)C(Cl)(Cl)Cl (stereo not given) | inactive: -10.8% |
| O=C(OC1CN2CCC1CC2)C12CC3CC(CC(C3)C1)C2 (stereo not given) | inactive: -5.5% |
